Test results from ChEMBL document CHEMBL1240489, “Discovery of N-{1-[3-(3-oxo-2,3-dihydrobenzo[1,4]oxazin-4-yl)propyl]piperidin-4-yl}-2-phenylacetamide (Lu AE51090): an allosteric muscarinic M1 receptor agonist with unprecedented selectivity and procognitive potential” (J Med Chem, 2010).
pKi: −log10 of the molar value.

The chains behind the UniProt entries cited, without tags or fusion partners.
UniProt P08172, whole entry: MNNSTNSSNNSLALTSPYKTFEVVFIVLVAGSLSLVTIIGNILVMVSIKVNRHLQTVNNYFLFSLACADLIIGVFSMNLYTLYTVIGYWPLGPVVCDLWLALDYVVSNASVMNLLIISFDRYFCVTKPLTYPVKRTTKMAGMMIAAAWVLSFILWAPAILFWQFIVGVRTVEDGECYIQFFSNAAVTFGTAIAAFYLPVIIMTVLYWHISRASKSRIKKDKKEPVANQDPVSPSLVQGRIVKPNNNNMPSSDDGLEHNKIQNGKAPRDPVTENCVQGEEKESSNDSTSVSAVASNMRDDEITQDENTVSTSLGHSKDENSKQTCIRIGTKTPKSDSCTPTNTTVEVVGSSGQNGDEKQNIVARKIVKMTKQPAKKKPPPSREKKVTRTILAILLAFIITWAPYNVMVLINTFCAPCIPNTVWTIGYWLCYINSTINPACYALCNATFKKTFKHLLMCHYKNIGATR

Molecular target: Muscarinic acetylcholine receptor M2 (Homo sapiens, UniProt P08172)
Assay: Displacement of [3H]-AFDX-384 from human muscarinic M2 receptor expressed in CHO-K1 cells
Assay type: cell-based

With `CCCCCCOc1nsnc1C1=CCCN(C)C1` [XANOMELINE] the pKi was 6.92.
